Test results: patent publication US4698306A, “Process for producing peroxidase” (Takara Shuzo Co., Ltd., priority 1984, dated 1987)

Amino acid sequences for entries named in this document (tags omitted). Residues count along the entry.
UniProt P28314, 21-363 limits assumed: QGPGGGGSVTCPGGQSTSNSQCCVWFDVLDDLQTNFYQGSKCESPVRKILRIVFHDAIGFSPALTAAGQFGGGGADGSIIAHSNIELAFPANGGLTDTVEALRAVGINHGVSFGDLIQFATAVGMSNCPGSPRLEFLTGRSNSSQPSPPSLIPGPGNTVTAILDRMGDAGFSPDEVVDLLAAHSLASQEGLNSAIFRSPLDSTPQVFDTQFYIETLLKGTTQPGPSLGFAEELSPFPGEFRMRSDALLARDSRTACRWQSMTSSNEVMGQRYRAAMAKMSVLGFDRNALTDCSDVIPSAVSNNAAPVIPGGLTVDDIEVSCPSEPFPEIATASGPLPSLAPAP

Biological target: peroxidase (Coprinopsis cinerea, UniProt P28314)
Assay: Effects of inhibitors, metal ions and metal chelating agents on peroxidase activity
Type: biochemical, Coprinus macrorhizus K-1330
Settings: additive 1 mM; no addition = 100

Row | Compound | Relative activity [%]
1 | [N-]=[N+]=[N-] [Sodium azide] | 52
2 | Sodium sulfide | 82
